{"source": "patent US9567329B2", "about": "“High penetration prodrug compositions of 1H-imidazo[4,5-c]quinolin-4-amines and 1H-imidazo[4,5-c]quinolin-4-amine-related compounds and uses thereof” (Techfields Pharma Co., Ltd, priority 2007, dated 2017)", "key": {"[1]": {"system": "Human breast cancer cells (BCAP-37)", "details": "at day 45", "from_the_text": "Human breast cancer cells (BCAP-37, 3-4 mm^3 of tumor tissue was used in each mouse) were subcutaneously xenografted into nude mice (BALB)."}, "[2]": {"system": "Human colon cancer cells (LS174J)", "test": "Antitumor activity, colon cancer xenograft, topical treatment from day 1", "details": "50 μl of 3% topically twice per day; after 28 days", "from_the_text": "Human colon cancer cells (LS174J, 4-5 mm^3 of tumor tissue was used in each mouse) were subcutaneously xenografted into nude mice (BALB)."}, "[3]": {"system": "Human breast cancer cells (BCAP-37)", "test": "Antitumor activity, breast cancer xenograft, topical treatment from day 1", "details": "50 μl of 3% topically once per day; after 28 days", "from_the_text": "Human breast cancer cells (BCAP-37, 4-5 mm^3 of tumor tissue was used in each mouse) were subcutaneous xenografted into nude mice (BALB)."}}}
{"smiles": "CC(C)Cn1cnc2c(N)nc3ccccc3c21.Cl", "note": "[1-isobutyl-1H-imidazo[4,5-c]quinolin-4-amine hydrochloride, reference compound]", "values": [{"measurement": "average weights of the mice", "setting": "[1]", "value": "22±2", "unit": "grams"}, {"measurement": "Average weight of mice, Human colon cancer", "setting": "[2]", "value": "21 ± 2", "unit": "g"}, {"measurement": "Average weight of mice, Human breast cancer", "setting": "[3]", "value": "22 ± 2", "unit": "g"}]}
